Data as given in patent US20110105565A1, “WATER SOLUBLE SMALL MOLECULE INHIBITORS OF THE CYSTIC FIBROSIS TRANSMEMBRANE CONDUCTANCE REGULATOR” (THE REGENTS OF THE UNIVERSITY OF CALIFORNIA, priority 2008, published 2011).

Protein sequences, listed by entry. Tags and fused reporters are not part of them.
UniProt P13569, whole entry: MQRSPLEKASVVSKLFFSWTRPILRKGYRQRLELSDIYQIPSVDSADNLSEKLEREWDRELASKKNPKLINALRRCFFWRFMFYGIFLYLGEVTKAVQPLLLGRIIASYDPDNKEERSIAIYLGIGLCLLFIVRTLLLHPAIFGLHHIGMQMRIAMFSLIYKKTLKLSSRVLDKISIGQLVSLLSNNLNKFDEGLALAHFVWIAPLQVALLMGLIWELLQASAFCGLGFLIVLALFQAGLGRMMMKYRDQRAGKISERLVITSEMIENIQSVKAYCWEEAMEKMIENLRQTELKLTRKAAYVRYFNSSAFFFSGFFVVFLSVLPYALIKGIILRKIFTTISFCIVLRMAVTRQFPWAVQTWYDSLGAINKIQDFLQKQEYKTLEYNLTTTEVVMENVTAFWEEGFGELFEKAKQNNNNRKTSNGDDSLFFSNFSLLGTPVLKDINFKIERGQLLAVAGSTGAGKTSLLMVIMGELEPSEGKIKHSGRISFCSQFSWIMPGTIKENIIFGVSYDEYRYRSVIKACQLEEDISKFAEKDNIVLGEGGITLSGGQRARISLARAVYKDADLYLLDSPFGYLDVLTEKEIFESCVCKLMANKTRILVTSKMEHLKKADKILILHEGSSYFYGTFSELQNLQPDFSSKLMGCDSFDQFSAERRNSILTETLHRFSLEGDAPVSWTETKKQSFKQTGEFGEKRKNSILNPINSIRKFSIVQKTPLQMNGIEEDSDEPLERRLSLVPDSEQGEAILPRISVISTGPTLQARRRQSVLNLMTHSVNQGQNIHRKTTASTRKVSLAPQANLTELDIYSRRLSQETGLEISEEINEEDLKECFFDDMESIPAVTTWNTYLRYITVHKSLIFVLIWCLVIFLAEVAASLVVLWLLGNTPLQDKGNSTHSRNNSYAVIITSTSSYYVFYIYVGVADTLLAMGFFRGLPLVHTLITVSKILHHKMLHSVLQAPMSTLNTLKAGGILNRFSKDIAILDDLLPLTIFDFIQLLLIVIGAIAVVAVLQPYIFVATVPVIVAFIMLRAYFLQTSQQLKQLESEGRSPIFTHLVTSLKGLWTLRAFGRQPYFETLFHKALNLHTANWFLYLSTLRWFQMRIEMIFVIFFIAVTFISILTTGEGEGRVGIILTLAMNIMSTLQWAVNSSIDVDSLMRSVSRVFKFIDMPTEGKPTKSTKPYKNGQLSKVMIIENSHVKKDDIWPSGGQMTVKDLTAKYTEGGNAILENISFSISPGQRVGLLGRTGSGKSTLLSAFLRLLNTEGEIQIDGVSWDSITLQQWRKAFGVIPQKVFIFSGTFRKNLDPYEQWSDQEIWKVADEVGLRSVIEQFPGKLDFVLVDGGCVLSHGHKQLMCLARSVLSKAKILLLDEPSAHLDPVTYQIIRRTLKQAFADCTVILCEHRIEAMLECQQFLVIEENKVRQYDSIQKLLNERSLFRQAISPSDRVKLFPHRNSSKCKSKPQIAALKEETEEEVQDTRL

Biological target: human wildtype CFTR (Homo sapiens, UniProt P13569)
Assay: Fluorescence cell-based assay of CFTR inhibition (YFP iodide influx, FRT cells)
Parameters: expressed in transfected cells; host or cells: Fisher rat thyroid (FRT) cells
Conditions: structure-activity discussion
Description: Fluorescence cell-based assay of CFTR inhibition. CFTR inhibition by thiazolidinone derivative compounds was determined by a fluorescence cell-based assay utilizing doubly transfected cells expressing human wild-type CFTR and a yellow fluorescent protein (YFP) iodide sensor, as described (see, e.g., Galietta, et al., J. Physiol. 281:C1734-C1742 (2001)). Fisher rat thyroid (FRT) cells stably expressing wild-type human CFTR and YFP-H148Q were cultured on 96-well black-wall plates as described (see, e.g., Ma, et al., J. Clin. Invest. 110:1651-1658 (2002)). Cells in 96-well plates were washed three times, and then CFTR was activated by incubation for 15 minutes with an activating cocktail containing 10 μM forskolin, 20 μM apigenin, and 100 μM IBMX. Test compounds were added 5 minutes before assay of iodide influx in which cells were exposed to a 100 mM inwardly directed iodide gradient. YFP fluorescence was recorded for 2 seconds before and 12 seconds after creation of the iodide gradient. Initial rates of iodide influx were computed from the time course of decreasing fluorescence after the iodide gradient.
CFTR-facilitated iodide influx following extracellular iodide addition results in quenching of cytoplasmic YFP fluorescence.

Substance: (Z)-4-((2,4-dioxo-3-(3- (trifluoromethyl) phenyl) thiazolidin-5- ylidene)methyl)benzoic acid [Compound 47]
- CFTR inhibitory activity (in words): inactive
